# Experimental data taken from patent publication US20240174645A1, “COMPOUND, PRODUCTION METHOD THEREFOR, COMPLEX, AND SHORT WAVELENGTH INFRARED FLUORESCENT AGENT” (RIKEN, priority 2021, published 2024).
# System: HER2 overexpression breast cancer cells (KPL-4) tumor
# Test: Apoptosis (cell death) imaging of breast cancer after Kadcyla
# Type: in vivo, nude mouse
# Settings: 0.1 mL of Kadcyla (2 mg/mL) tail vein
# Procedure: 0.1 mL of Kadcyla (2 mg/mL) was injected, through tail vein, into the nude mouse to which HER2 overexpression breast cancer cells (KPL-4) were transplanted. After three days, the shortwave infrared fluorescent agent 12 (complex 8 having a concentration of 0.5 mg/mL) or the shortwave infrared fluorescent agent 13 (complex 9 having a concentration of 0.5 mg/mL) was injected into the tumor part. The next day, shortwave infrared fluorescence imaging of the breast cancer tumor of the cancer-bearing mouse was performed in vivo. The fluorescence images were captured at an excitation wavelength of 905 nm and a fluorescence detection wavelength of 1000 nm or more. The intensity of the excitation light was 20 mW/cm^2, and the exposure times were 5 seconds (shortwave infrared fluorescent agent 12) and 10 seconds (shortwave infrared fluorescent agent 13). Photographs representing in vivo bright-field images and in vivo shortwave infrared fluorescence images, with the shortwave infrared fluorescent agent 12 and the shortwave infrared fluorescent agent 13, of the breast cancer tumors in the nude mouse into which Kadcyla was injected (left) and the nude mouse into which Kadcyla was not injected (right) are shown in FIG. 18.
# 0.1 mL of Kadcyla (2 mg/mL) was injected, through tail vein, into the nude mouse to which HER2 overexpression breast cancer cells (KPL-4) were transplanted. […] After 3 days, 5 days, and 11 days, shortwave infrared fluorescence imaging of the breast cancer tumor of the cancer-bearing mouse was performed in vivo. The fluorescence images were captured at an excitation wavelength of 905 nm and a fluorescence detection wavelength of 1000 nm or more. […] Photographs representing in vivo bright-field images and in vivo shortwave infrared fluorescence images, after specific periods of time elapsed, of the breast cancer tumor in the nude mouse with the shortwave infrared fluorescent agent 13, into which Kadcyla was injected, are shown in FIG. 19.
# [1] = agent 13 imaging after 3 days, 5 days, and 11 days
substance,measurement,setting,value
"Kadcyla: anti-HER2 antibody Tubulin polymerization inhibitor complex, an antibody-drug complex (ADC)",apoptosis (cell death) of tumor cells,"agent 12 or 13 into tumor after three days, imaged the next day",apoptosis (cell death) of the tumor cells was induced
same,"apoptosis (cell death) of tumor cells, over time",[1],induced apoptosis (cell death) of tumor cells
same,size of the tumor,[1],caused the size of the tumor to be small
